# Data from US4439444A, “Amidobenzamides, their salts and pharmaceutical compositions containing them” (Sanofi, priority 1981, dated 1984).
# System: immature Sprague Dawley rats, castrated, testosterone-stimulated genitals and levator ani muscle
# Details: rat, in vivo, 200 mg/kg/day
compound,measurement,value
"CN(C)Cc1ccc(CSCCNC(=O)c2cccc(NS(=O)(=O)c3ccccc3)c2)o1 [CM 57888, 3-benzenesulfonamido-N-[2-(5-dimethylaminomethylfuran-2-ylmethylthio)ethyl]benzamide]",anti-androgenic and anti-anabolising activity,much lower than that of the reference compounds
